Results taken from PubChem BioAssay AID1322 (NMMLSC, 2008).
The entries are a selection whose mix differs from that of the whole data set. The source made the active and inactive calls. How the calls were made is not given here.

Protein sequences, listed by entry. Tags and fused reporters are not part of them.
UniProt Q07817, whole entry, looked up: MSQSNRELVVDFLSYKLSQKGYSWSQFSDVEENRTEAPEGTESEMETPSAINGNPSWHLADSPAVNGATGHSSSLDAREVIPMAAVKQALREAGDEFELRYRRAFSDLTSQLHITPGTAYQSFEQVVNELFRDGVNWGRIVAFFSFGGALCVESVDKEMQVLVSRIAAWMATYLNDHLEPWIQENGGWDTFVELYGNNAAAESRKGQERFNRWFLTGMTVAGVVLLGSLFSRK

Target: Bcl-2-like protein 1 (Homo sapiens) (UniProt Q07817)
Test: Bcl-XL binding to Bim peptide disruption – biochemical, multiplexed, bead flow cytometry, human Bcl-XL, dose response (AID 1322); further: test concentration not given here
Details: Bead-based flow cytometry, MCF

Q: How did the inhibition turn out when `CCOP1(=S)c2c(C)nn(CCC#N)c2N=C(c2ccc(F)cc2)N1C` (stereo unspecified) was run?
A: The inhibition was “inactive”.
